Experimental data published in patent US11771083B2, “Flower thinning composition and flower thinning method using same” (priority 2018, dated 2023).
Read-outs that look alike come from different tables or passages of the source.

Columns and labels:
[1] = tested on: honeybees; test: Honeybee toxicity test depending on spray concentration of formulations (Test Example 6); assay type: in vivo; settings: 96 hours
[2] = tested on: honeybees; test: Acute contact toxicity to honeybees, active ingredients in acetone (Test Example 4); assay type: in vivo; settings: treatment dose 50 μg per honeybee in acetone; 72 hours after treatment
[3] = tested on: honeybees; settings: active ingredient dissolved in acetone; treatment dose 100 μg

Row | Compound | Lethargy + lethality (%) ([1]; spray concentration 0.2%) | Lethargy + lethality (%) ([1]; spray concentration 0.4%) | Lethality (%) [2] | Lethality (%) [3]
1 | CCCCCCCCCCO [1-Decanol, 1-decanol] | 33.3% | 43.3% |  | 
2 | CCCCCCCCO [1-Octanol, 1-octanol] | 13.3% | 13.3% | 26.7% | 
3 | CCCCCCCCCC(=O)O [1-decanoic acid, reference compound] |  |  | 43.3% | 
4 | CCCCCCCO [1-heptanol] |  |  |  | 33.3%
5 | OC1CCCCC1 [Cyclohexanol, cyclohexanol] |  |  |  | 33.3%
